Data from article PMC2970562, “High-Affinity Inhibitors of Human NAD^+-Dependent 15-Hydroxyprostaglandin Dehydrogenase: Mechanisms of Inhibition and Structure-Activity Relationships” (PLoS ONE, 2010).
Values joined by “and” are separate entries in the source; they are usually repeats but may differ in a detail not shown here. Equal values may be shown once.

Columns and labels:
Format in all cases: biochemical
human 15-PGDH [1] = target: T1, human 15-PGDH (Homo sapiens, UniProt P15428); test: Substrate (PGE2) and cofactor (NAD+) titrations, mechanism of action, global fitting; settings: inhibitor 10.0 nM
T1 construct: comprising residues 3–256 of the human HPGD gene (GenBank identifier: 1203982); His6 (GHHHHHH, behind the TEV site) (C, cleaved yes); made in house; host or cells: E. coli BL21(DE3)-R3
T1 sequence (P15428 3-256): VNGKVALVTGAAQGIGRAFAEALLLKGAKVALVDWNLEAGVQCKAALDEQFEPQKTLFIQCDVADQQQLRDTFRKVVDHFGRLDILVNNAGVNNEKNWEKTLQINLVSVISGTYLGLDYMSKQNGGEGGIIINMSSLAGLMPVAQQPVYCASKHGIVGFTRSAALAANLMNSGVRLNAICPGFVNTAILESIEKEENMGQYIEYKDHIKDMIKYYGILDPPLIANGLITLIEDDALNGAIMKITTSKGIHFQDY
Procedure: The Michaelis constant, K m, for PGE2 was calculated from the data as 5.5±0.6 µM, comparing favorably with previously published values, [35], [36]. […] Global fitting of the results to the four possible modes of inhibition (competitive, uncompetitive, noncompetitive and mixed-type inhibition) returned the highest probability for the mixed-type mode (Table 2). However, the fitting results are also consistent with a competitive mode for inhibition by compound 61, particularly when the residual Chi^2 value for this mode is compared to those of the other two compounds.
Kinetic studies were performed in 100 mM Tris buffer pH 8.0, containing 0.01% Tween-20 and 10 nM 15-PGDH enzyme. NAD^+ and PGE2 were applied from stock concentrations of 100 or 2 mM, respectively, in 500 mM Tris/HCl, pH 8.0. […] Experiments comprising substrate titrations, from serially diluted stock solutions in buffer I, were started by injection of buffer I containing enzyme and NAD^+, while cofactor titrations were set up in assay buffer containing 30 µM PGE2 substrate and started by injection of enzyme in buffer I. The reduction of NAD^+ was followed by monitoring fluorescence emission at 460 nm, excited at 355 nm (10 nm bandwidth filters, PolarStar Omega, BMG Labtech GmbH), at a reading frequency of 22 s/point or 12 s/point for compound- or substrate/cofactor titrations, respectively. […]

human 15-PGDH [2] = target: T1, human 15-PGDH; test: qHTS and 24-point re-test: fluorescence assay of NAD+ reduction to NADH on PGE2 oxidation (PubChem AID 894)
Procedure: To screen for inhibitors in a high-throughput format, we adopted the standard assay used for this enzyme which involved monitoring the increase in sample fluorescence corresponding to the conversion of the non-fluorescent NAD^+ cofactor into the fluorescent NADH upon oxidation of the 15-PGDH substrate 15-hydroxyprostaglandin type-E2 (PGE2) (Figure 1). The assay was miniaturized to a 4-µL volume in 1536-well format: enzyme (3 µL) was dispensed first, followed by a pintool transfer of library compounds dissolved in DMSO. After equilibration, a substrate dispense (1 µL) initiated the enzymatic reaction (see Materials and Methods, for detailed protocol description). A robotic validation run consisting of a concentration-response screen of the LOPAC^1280 library, performed in triplicate, yielded excellent assay statistics and hit reproducibility (supplementary information Figures S1A and S1B). […] Similarly, the collection of real-time kinetic data allowed the autofluorescence of each compound to be evaluated by comparing the initial fluorescence read at top concentration with the mean value of uninhibited assay controls: compounds whose top-concentration initial well fluorescence exceeded six standard deviations over the mean were flagged as potential autofluorescent artifacts, [28] […]

human 15-PGDH [3] = target: T1, human 15-PGDH; test: Compound titrations of re-synthesized inhibitors in the kinetic assay
Procedure: Kinetic studies were performed in 100 mM Tris buffer pH 8.0, containing 0.01% Tween-20 and 10 nM 15-PGDH enzyme. […] All inhibitor compounds were dissolved in 10% (v/v) DMSO at varying concentrations from which they were applied at 1∶5 ratio (resulting in a final concentration of 2% (v/v) DMSO in all assays). For each experiment an aliquot of purified enzyme was thawed freshly and pre-diluted to 10 µM in buffer I (5 mM Tris/HCl, pH 8.0, 150 mM NaCl, 0.01% Tween-20). All experiments were performed in white 384-well PCR microplates (Bio-Rad Laboratories, Inc.) in final assay volumes of 20 µL. Twelve-point compound titrations were set up from serially diluted stock solutions in 10% (v/v) DMSO. […] The initial rates recorded in compound titrations were plotted against -log[compound], and non-linear regression (Levenberg-Marquardt) fitting of the dose-response curve to the Hill equation [47] was performed to derive the IC50, using PRISM 5.0 (GraphPad Software, Inc.). For substrate/cofactor titrations, curves with initial rates plotted against the concentration of substrate or cofactor were fitted to the Michaelis-Menten equation, to derive maximal activities, V max, and Michaelis constants, K m. Fitting qualities were judged from the goodness of fit (R^2>0.98).

- Titration of PGE2 k cat[1/sec] (human 15-PGDH [1]): 14.1 ± 0.2 s⁻¹
- IC50 (human 15-PGDH [2]): 141 nM
- IC50 (human 15-PGDH [3]; 10 nM 15-PGDH, 30 µM PGE2, 200 µM NAD+, 25°C, lower percent substrate conversion, read-out: IC50, re-synthesized compounds): 26.4 ± 2.4 nM
- Ki (human 15-PGDH [3]; from observed IC50 assuming competitive inhibition with respect to PGE2, read-out: inhibition constant, K i): ~5 nM and 5 nM
SMILES: N#Cc1ccccc1CSc1nc2cc(Br)c[nH]c-2n1 [Compound 61]
